Assay outcomes as filed in PubChem BioAssay.
Rows were chosen to be rich in hits. Some 13% of all compounds tested hit in one or more screens of this group.
Sfp PPTase inh = blocks B. subtilis Sfp PPTase activity | 310,000 compounds, 3.5% hits | Potency, µM, without a hit: max response, negative = inhibition, actives largely listed as inhibitors | Biochemical Sfp PPTase activity, qHTS; active means well fitted inhibition curve with a large enough effect; inconclusive means small, poorly fitted or top-dose-only effect, or another doubt; inactive means no such curve, though single readings can be large or run the other way;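 further: the enzyme is Sfp with the accession as filed and its product quenches rhodamine fluorescence; potency means the concentration at half of the fitted maximal effect; 0% = enzyme reaction without inhibitor and -100% = no enzyme wells; top concentration of the series not given in the record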
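Step 1, compound plus 15 nM Sfp-PPTase, 15 min, room temperature. Step 2, add rhodamine-CoA (5 uM) and BHQ-2-YbbR (12.5 uM). Step 3, read 525/598 nm fluorescence at 0 and 30 min.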
KDM4E inh = JMJD2E (human) inhibition. JMJD2E catalytic domain, FDH-coupled NADH fluorescence (FDH is formaldehyde dehydrogenase). Potency, µM (highest dose often 57.1 µM), inactives show at the highest dose activity change, negative = inhibition, usual class: inhibitors. 1.6% of 230,000 active. AID 2147; active = well fitted inhibition curve with a large enough effect, not every such curve was filed as active; inconclusive = small, poorly fitted or top-dose-only effect, or another doubt; inactive = no such curve, though single readings can be large or run the other way;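 note: potency is the fitted concentration of half-maximal effect; 0% = wells with enzyme and -100% = buffer wells without enzyme; nearly all actives have a fitted effect of over 50% in size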
G9a inh = blocks human histone lysine methyltransferase G9a; AID 504332; Potency, µM (series often up to 102 µM), for inactives: at the highest dose activity, negative = inhibition, actives largely listed as inhibitors; G9a H3K9 monomethylation, AlphaScreen, 2 h; 8.8% of 350,000 active; note: potency is the fitted concentration of half-maximal effect; % is set by controls: 0 for no effect and ±100 for the full control effect; nearly all actives have a fitted effect of over 75% in size
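Enzyme 20 nM + cpd, 15 min RT; add b-H3K9 pep 500 nM / SAM 20 uM; 2 h RT; anti-H3K9me1 Ab 0.5 ug/mL + SA donor / anti-rabbit acceptor beads 20 ug/mL each, 10 min; AlphaScreen read.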
Lamin A splicing = changes lamin A minigene splicing in HeLa cells; Potency, µM (series often up to 46.1 µM), for the others: at the top dose ratio change, negative = inhibition, actives largely listed as inhibitors; AID 1487; HeLa LMNA splicing GFP/RFP minigene ratio, 48 h; 0.01% of 200,000 active; active = well fitted inhibition curve with a large enough effect in the signal ratio, with a control signal flat, not every such curve was filed as active; inconclusive = small, poorly fitted or top-dose-only effect, or effect the other way, or a change in a side signal; the % refers to the signal ratio; note: potency is the fitted concentration of half-maximal effect; % is set by controls: 0 for no effect and ±100 for the full control effect
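Read-out is the ratio of GFP to DsRed2 object intensity, acquired by 488 nm laser-scanning cytometry on HeLa lamin A-EGFP minigene reporter cells. Compound incubation 48 hrs at 37 °C in Opti-MEM with 2% FBS; DMSO 0.5% final.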
ALDH1A1 inh = ALDH1A1 (human) enzyme inhibition. AID 1030. Potency, µM (series often up to 75.3 µM), for inactives: at the highest dose activity, negative = inhibition, actives largely listed as inhibitors. Purified ALDH1A1, NADH fluorescence, propionaldehyde substrate. 7.3% of 220,000 active; active = well fitted inhibition curve with a large enough effect, not every such curve was filed as active; inconclusive = small, poorly fitted or top-dose-only effect, or another doubt; inactive = no such curve, though single readings can be large or run the other way;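 note: potency is the fitted concentration of half-maximal effect; plate controls were no enzyme wells and a reference inhibitor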
miR-21 reporter = miR-21 reporter, rising signal; HeLa miR-21 FLuc reporter, luciferase, 48 h; Potency, µM (titrated, usually from 38.3 µM), for the others: at the top dose reporter change, positive = more light; 340,000 tested, under 10 active; AID 2288; active = well fitted rising curve with a large enough effect; inconclusive = small, poorly fitted or top-dose-only effect; inactive = no such curve, though single readings can be large or run the other way;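 also: % of control where 0% means no effect; miR-21 action dims this reporter so a rising signal means less miR-21 action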
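Luminescence from a firefly luciferase reporter carrying a miR-21 binding site downstream, stably expressed under a CMV promoter in HeLa cells that make miR-21 endogenously, reports miRNA modulation after 48 h compound exposure up to approximately 40uM final.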
Numbers without * were called inactive; [ ] = another dose, or the depositor's remark. Unless noted, calls come from the whole dose curve; as a rule, active = well fitted curve in the direction sought with a large enough effect; inconclusive = small, poorly fitted or top-dose-only effect, or another doubt; inactive = no such curve, though single readings can be large; an effect the other way counts as inactive or inconclusive.

`C/C=C\C=C/C(=O)Nc1cccc(C2=NOC3(C2)C[C@@H](C(N)=O)N(C(=O)[C@H]2CCC(=O)N2)C3)c1` (stereo partly drawn) gave Sfp PPTase inh 35µM*, KDM4E inh 3%, G9a inh 3%[12.7 µM] and miR-21 reporter 0%.
For C/C=C/C(=O)N1CC2(CC(c3cccc(NC(=O)CC)c3)=NO2)C[C@H]1C(N)=O (stereo partly drawn) the results were Sfp PPTase inh -6%, KDM4E inh -16%, G9a inh inconclusive and miR-21 reporter 10%.
C/C=C\C=C/C(=O)Nc1cccc(C2=NOC3(C2)C[C@@H](C(N)=O)N(C(=O)C2(C)CC2)C3)c1 (stereo partly drawn) was read as Sfp PPTase inh 20µM*, KDM4E inh 3%, G9a inh inconclusive and miR-21 reporter -8%.
Screening CCCc1nn2c(=O)cc(COC(=O)c3ccc(NC(=O)COc4ccccc4)cc3)nc2s1 returned G9a inh -2%[12.7 µM], Lamin A splicing inconclusive and miR-21 reporter 0%.
`N#Cc1nc(-c2ccc(OCc3ccccc3Cl)cc2)oc1NCCCn1ccnc1` gave Sfp PPTase inh -8%, KDM4E inh 3.2µM*, G9a inh inconclusive, Lamin A splicing inconclusive, ALDH1A1 inh inconclusive and miR-21 reporter -26%.
N#Cc1nc(COc2ccc(Br)cc2)oc1NCCCn1ccnc1 was read as Sfp PPTase inh 13%, KDM4E inh 8%, G9a inh 40µM*, Lamin A splicing inconclusive, ALDH1A1 inh 14% and miR-21 reporter -2%.
`COc1ccccc1OCc1nc(C#N)c(NCCCn2ccnc2)o1` gave Sfp PPTase inh 21%, KDM4E inh 5%, G9a inh inconclusive, Lamin A splicing -5%[46 µM], ALDH1A1 inh 5% and miR-21 reporter -1%.
For N#Cc1nc(-c2ccc(OCc3ccccc3)cc2)oc1NCCCn1ccnc1 the results were Sfp PPTase inh inconclusive, KDM4E inh inconclusive, G9a inh inconclusive, Lamin A splicing inconclusive, ALDH1A1 inh inconclusive and miR-21 reporter -4%.
N#Cc1nc(COc2ccccc2F)oc1NCCCn1ccnc1 was read as Sfp PPTase inh 16%, KDM4E inh 14%, G9a inh 32µM*, Lamin A splicing inconclusive, ALDH1A1 inh -6% and miR-21 reporter -8%.
COc1ccc(-c2cc3nc(C)c(CCC(=O)Nc4ccc(F)cc4F)c(C)n3n2)c(OC)c1 was read as G9a inh 4%[59 µM] and miR-21 reporter -3%.
For COc1ccc(-c2cn3c(n2)sc2cc(C(=O)NCc4cccc(F)c4)ccc23)cc1 the results were G9a inh -4%[59 µM], Lamin A splicing 7%[46 µM] and miR-21 reporter -6%.
COc1ccc(C)cc1S(=O)(=O)NC(C)C(=O)Nc1ccc2c(c1)OCO2 (stereo not drawn) was read as Sfp PPTase inh 1%, G9a inh -9% and miR-21 reporter -2%.
O=C1C(=O)N(CC2CCCO2)C(c2ccccc2[N+](=O)[O-])/C1=C(/O)c1ccccc1 (stereo not drawn) was read as Sfp PPTase inh inconclusive, KDM4E inh 0%, G9a inh 32µM*, Lamin A splicing 2%[46 µM], ALDH1A1 inh inconclusive and miR-21 reporter -14%.
For Cc1ccc(C2/C(=C(/O)c3ccc(Cl)cc3)C(=O)C(=O)N2CC2CCCO2)o1 (stereo not drawn) the results were Sfp PPTase inh -17%, KDM4E inh -4%, G9a inh 7%[59 µM], Lamin A splicing -3%, ALDH1A1 inh -14% and miR-21 reporter -2%.
Screening COc1ccc(OCCCC(=O)Nc2nc(C)c(C(C)=O)s2)cc1 returned Sfp PPTase inh 13%, KDM4E inh 0%, G9a inh 8%[0.501 µM], Lamin A splicing 27%[46 µM], ALDH1A1 inh -6% and miR-21 reporter 6%.
Screening CC(=O)c1sc(NCCOc2ccc(C)cc2)nc1C returned Sfp PPTase inh -17%, KDM4E inh inconclusive, G9a inh 50µM*, ALDH1A1 inh inconclusive and miR-21 reporter -41%.
CC(=O)c1sc(NCc2ccccc2)nc1C was read as Sfp PPTase inh -4%, G9a inh 71µM* and miR-21 reporter -21%.
Cc1nc(NCCc2ccccc2)sc1C(=O)O was read as Sfp PPTase inh 3%, G9a inh -9% and miR-21 reporter -31%.
For COc1cc(C)nc(Nc2nc(C)c(C(C)=O)s2)n1 the results were Sfp PPTase inh -1%, KDM4E inh 0%, G9a inh -9%, Lamin A splicing inconclusive, ALDH1A1 inh 1.6µM* and miR-21 reporter 6%.
Screening COc1ccc(CCNc2nc(-c3ccc(F)cc3)c(CC(=O)O)s2)cc1OC returned Sfp PPTase inh 35µM*, G9a inh 7.1µM* and miR-21 reporter -1%.

Brought forward from above: four entries, then new ones.
CC(=O)c1sc(NCc2ccccc2)nc1C was read as Sfp PPTase inh -4%, G9a inh 71µM* and miR-21 reporter -21%.
Cc1nc(NCCc2ccccc2)sc1C(=O)O was read as Sfp PPTase inh 3%, G9a inh -9% and miR-21 reporter -31%.
For COc1cc(C)nc(Nc2nc(C)c(C(C)=O)s2)n1 the results were Sfp PPTase inh -1%, KDM4E inh 0%, G9a inh -9%, Lamin A splicing inconclusive, ALDH1A1 inh 1.6µM* and miR-21 reporter 6%.
Screening COc1ccc(CCNc2nc(-c3ccc(F)cc3)c(CC(=O)O)s2)cc1OC returned Sfp PPTase inh 35µM*, G9a inh 7.1µM* and miR-21 reporter -1%.
Screening COc1ccc(CCNc2nc(C)c(C(C)=O)s2)cc1OC returned Sfp PPTase inh 16µM*, G9a inh 4µM* and miR-21 reporter -7%.
`CC(=O)c1sc(Nc2ccccn2)nc1C` gave Sfp PPTase inh -6%, KDM4E inh -10%, G9a inh -6%[59 µM], Lamin A splicing inconclusive, ALDH1A1 inh 20µM* and miR-21 reporter -30%.
For COc1ccc(CCNc2nc(-c3ccc(NC(C)=O)cc3)cs2)cc1OC the results were Sfp PPTase inh -24%, KDM4E inh -5%, G9a inh inconclusive, Lamin A splicing inconclusive, ALDH1A1 inh inconclusive and miR-21 reporter 16%.
Screening CC(=O)c1sc(NCc2ccc(C)cc2)nc1C returned Sfp PPTase inh 1%, G9a inh 56µM* and miR-21 reporter -69%.
CC(=O)c1sc(Nc2ccc(C)cc2)nc1C was read as Sfp PPTase inh -7%, KDM4E inh 2%, G9a inh inconclusive, Lamin A splicing 9%[46 µM], ALDH1A1 inh -9% and miR-21 reporter -4%.
Screening CCOC(=O)c1ccc(NCCc2ccc(OC)c(OC)c2)c(N)c1 returned Sfp PPTase inh 13%, G9a inh 50µM* and miR-21 reporter -7%.
Screening Cc1ccc(CNc2nc(C)c(C(=O)N(C)C)s2)cc1 returned Sfp PPTase inh 4%, G9a inh -30% and miR-21 reporter -26%.
Screening COc1ccc2oc(C(=O)N(C)CCOc3ccccc3)c(C)c2c1 returned Sfp PPTase inh 8%, G9a inh 62% and miR-21 reporter -58%.
For COc1ccc(C2(CNC(=O)c3ccccc3[N+](=O)[O-])CCOCC2)cc1 the results were Sfp PPTase inh 12%, KDM4E inh 8%, G9a inh 40µM*, ALDH1A1 inh -6% and miR-21 reporter -3%.
